Key:
BEAS-2B cells [1] = assay: Wound healing test (scratch); conditions: 10 µM
Protocol: Wound healing test was performed to investigate the wound healing effect of the complex compound shown with formula I in BEAS-2B cells. BEAS-2B cells were inoculated into a 12-well cell culture dish of 10^6 cells. After 24 hours, the complex was incubated at a concentration of 10 µM for 24 hours. After incubation with the substances, 5 ng/ml TNF-α was added for inflammation and incubated for 24 hours. After approximately 24 hours, a wound was created with a 10 µL micro pipette tip on the surface, which filled the surface of the cell culture container to which they were attached to almost 100%. While creating the wound, the pipette tip was drawn at a constant speed from one end to the other on the cell culture dish in one go. BEAS-2B cells without substance and TNF-α incubation were used as control group. Wound healing activity was determined by visualizing the wound line with phase contrast microscope at 0, 24 and 48 hours and comparing with the control group. […] The improvement rates at 24 and 48 hours are shown in Figure 6 viewed under the microscope and in Figures 7 and 8, respectively.

BEAS-2B cells [2] = assay: MTT cell viability; conditions: 48 hours
Protocol: The effect of the complex compound represented by the formula I on BEAS-2B cells, the human bronchial epithelial cell line, was investigated. The effect of the synthesized complex compound on cell viability at concentrations of 1,10, 50, 100, 200, 300 µM was measured by the MTT (3-(4,5-dimethylthiazol-2yl)-2,5-diphenyl tetrazolium bromide) method. 10 µl of the substances were added to 96-well plates at a concentration of 1.10, 50, 100, 200, and 300 µM, respectively. Then, 90 µl of BEAS-2B cells prepared with 10^5 cells/ml were added to the 96-well plate, incubated at 37°C, and the effects of cell viability after 48 hours were examined. After 48 hours incubations, 10 µl of 5 mg/ml MTT in freshly prepared phosphate buffer saline (PBS) was added to the wells and incubated for 3 hours. Dimethyl sulfoxide (DMSO) was added to dissolve the formazan crystals formed by reduction of MTT in living cells. After the solution was kept in the dark for 1 night, it was measured at 570 nm in the spectrometer the next day. The absorbance value of the DMSO control was subtracted from the absorbance of the other wells. Cell viability was calculated by comparison with control cells according to the following equation: %Cell Viability = (1−absorbance of the wells incubated with the complex compound)/(absorbance of controls) × 100 [formula]

IL-8 gene expression = assay: IL-8 mRNA gene expression by qRT-PCR, with TNF-α inflammation model
Protocol: In order to understand the anti-inflammatory effects of the complex compound shown with formula I, an inflammation model was created in BEAS-2B cells with TNFα cytokine. 24 hours after inoculating BEAS-2B cells into 6-well plates at 3x10^6/3ml, the complex was incubated for 24 hours with concentrations of 10, 50, 100 µM. After incubation with the substances, 5 ng/ml TNF-α was added according to the experimental groups and incubated for 24 hours. After incubation, RNA isolation was performed using the kit (RNeasy Mini Kit of BEAS-2B cells, Qiagen). Complementary DNA (cDNA) was synthesized from 500 ng RNA with the kit (All-In-One 5X RT MasterMix) by measuring the concentrations of the isolated RNAs. IL-8 mRNA gene expression level in BEAS-2B cells incubated with agents and TNF-α was analysed by Real Time Polymerase Chain Reaction (qRT-PCR) method using kit (BrightGreen 2X qPCR MasterMix-ROX). IL-8 mRNA gene expression level was normalized by glyceraldehyde 3-phosphate dehydrogenase (GAPDH). Primer sequences are given in the sequence list as forward primer SEQ ID NO.1 and reverse primer as SEQ ID NO.2. The effect of the complex compound against IL-8 gene expression was examined.

N^1-1,1,1-Trifluoroacetylacetone-N^4-4-methoxysalicylidene-S-methylthiosemicarbazidato-zinc(II)
healing rate compared to the control (BEAS-2B cells [1]; 24th hour after wound formation): higher
healing rate compared to the control (BEAS-2B cells [1]; 48th hour after wound formation): higher
wound healing effect in the inflammation model compared to the control (BEAS-2B cells [1]; inflammation induced by 5 ng/ml TNF α): higher rate of wound healing effect
cell viability (BEAS-2B cells [2]; 200 µM): 53.69%
cell viability (BEAS-2B cells [2]; 300 µM): 41.76%
effect on cell viability at low doses (BEAS-2B cells [2]; low doses): proliferative effect
IL-8 gene expression in inflammation model (IL-8 gene expression; BEAS-2B, 5 ng/ml TNF-α for 24 hours after incubation with complex, Figure 5): suppresses IL-8 gene expression at very high rates
effect against IL-8 gene expression (IL-8 gene expression; BEAS-2B, 10, 50, 100 µM, 24 hours, normalized by GAPDH): suppress IL-8 gene expression very highly

From patent publication EP4522274B1, “THIOSEMICARBAZONE COMPLEX, PROCESS OF MANUFACTURE, COMPOSITION AND USE THEREOF IN THE TREATMENT OF COVID-19” (dated 2026)
